# Yeast mating assay 2: variants of the scFv Ab-91

From the AlphaSeq antibody data of Engelhart et al. 2022 (doi:10.1038/s41597-022-01779-4), copy in the FLAb collection.

Binding partner: SARS-CoV-2 spike HR2 peptide, sequence PDVDLGDISGINAS.

Each scFv is VL, a (GGGGS)3 linker, VH, as in the parent Ab-91, and differs from it in the CDRs of the heavy chain only.
VL: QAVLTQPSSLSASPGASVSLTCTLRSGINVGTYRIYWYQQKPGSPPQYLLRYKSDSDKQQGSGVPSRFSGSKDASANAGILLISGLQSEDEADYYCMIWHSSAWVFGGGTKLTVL
VH: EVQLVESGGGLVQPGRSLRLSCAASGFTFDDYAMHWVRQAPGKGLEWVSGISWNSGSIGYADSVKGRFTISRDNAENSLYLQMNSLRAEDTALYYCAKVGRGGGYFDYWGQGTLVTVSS

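In library AAYL51, one, two or three CDR residues were substituted; doubles and triples were drawn at random. AlphaSeq pools MATa yeast showing the antibodies with MATalpha yeast showing the peptide. Mating (16 h, 30 °C) was followed by selection of diploids and sequencing of their barcodes. The ratio of observed to expected reads was calibrated, replicate by replicate, on BCL2-family standards whose Kd was known from biolayer interferometry. Mating was done three times.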

Changes read parent residue, position, new residue, counted from the first residue of the VH shown. Affinities are written as log10 Kd with Kd in nM; a lower number is a better binder. A mean of the replicates is given; it leaves out those without a signal. "not detected" means that the variant was in the library but no mating with the target was seen in any replicate; the authors take this as a sign of poor binding, and no number exists. Three control strains display no target. For library AAYL51, 21% of the pairings with them gave a signal, with a median of 4.54 and one signal in twenty below 3.26, so weak values seen in few replicates may be background. The control count says in how many pairings with the empty strains this scFv gave a signal.

changes,"log10 Kd (nM), mean",detected,signal with controls
D62E/V99R,1.80,3/3,2/9
H35D/I58A/Y60M,4.97,3/3,6/9
G102V/G103A,4.27,1/3,3/9
D31T/K65H/G103P,not detected,0/3,1/9
F29V/Y32G/M34L,not detected,0/3,1/9
H35K/D62T/K65Q,not detected,0/3,1/9
D62T/R101T/Y105H,2.84,3/3,3/9
A33P/V99D,4.81,3/3,6/9
M34G/G102P/D107F,not detected,0/3,0/9
M34H/F106Y,4.64,1/3,5/9
A33M/K65A/F106T,not detected,0/3,0/9
G26Y/F27N/G103L,not detected,0/3,1/9
G26Q/D31V/D107H,3.88,1/3,1/9
M34T/N54L/K65H,5.55,2/3,1/9
G50M/V99A/Y105V,5.69,1/3,2/9
T28M/G56K,2.98,3/3,2/9
Y32T/Y60R/Y105R,3.29,1/3,0/9
S63P/V64P/G103H,5.83,1/3,4/9
H35G/G56E/V64P,3.03,1/3,0/9
G26S/D31Q/S63G,not detected,0/3,0/9
M34N/S52Y/I58H,not detected,0/3,2/9
A33S/M34E/G50A,5.12,2/3,1/9

Continued, with the values leading:

"log10 Kd (nM), mean",detected,signal with controls,changes
4.26,1/3,1/9,D30E/G50K/Y60N
not detected,0/3,0/9,I51P/S63E/D107M
3.65,1/3,1/9,Y32C/W53Q/A61K
not detected,0/3,0/9,F27A/N54M/D62G
not detected,0/3,0/9,V99L/G102N/F106V
2.04,3/3,2/9,D31N/Y32F/R101L
4.21,1/3,0/9,F27V/D30H/S52M
not detected,0/3,0/9,D31C/M34F/S63Y
not detected,0/3,1/9,I58T/V64L/Y108W
4.73,3/3,9/9,W53A/N54M/Y108N
5.53,1/3,1/9,I58D/Y105N/F106E
not detected,0/3,0/9,D31G/G50P/G59H
4.38,1/3,0/9,F27A/G50D/G102Q
4.94,3/3,8/9,G102F/F106D/Y108Q
not detected,0/3,0/9,Y60F/D62Q/R101V
not detected,0/3,1/9,D31Y/I51P/F106D
2.33,3/3,2/9,A33P/Y60F/Y105R
not detected,0/3,0/9,G50F/S55T/S63V
4.55,1/3,1/9,D31F/G56P/G102I
not detected,0/3,0/9,F27H/D62Y
not detected,0/3,1/9,Y32V/G59E/K65C
1.89,1/3,0/9,G56C/G59E/K65G
3.08,3/3,0/9,A33P/D62N